System: MAC strain 101 in mouse peritoneal macrophages or J774-A cell lines
Test: activity against MAC inside macrophages (CFU counts)
Settings: intact living macrophage

For NCC[C@H](O)C(=O)N[C@@H]1C[C@H](N)[C@@H](O[C@H]2O[C@H](CN)[C@@H](O)[C@H](O)[C@H]2O)[C@H](O)[C@H]1O[C@H]1O[C@H](CO)[C@@H](O)[C@H](N)[C@H]1O [amikacin], the “penetration of macrophages / killing of MAC in situ” value was “could not penetrate the intact living macrophage”.

Reference: patent publication US6015808A, “Synthesis of pharmaceutical compositions with lactams and β-lactams/oxo thia azabicyclo compounds” (priority 1995, dated 2000)
